Test results as given in patent US20260315611A1, “LINKER COMPOUNDS AND LIGAND-DRUG CONJUGATES, PREPARATION METHODS AND USES THEREOF” (Biocytogen Pharmaceuticals (Beijing) Co., Ltd., priority 2023, published 2026).

Tests used:
Assay type in all cases: in vivo, human tumor in B-NDG mice
[1] = system: human colorectal cancer PDX; experiment: anti-tumor activity in human colorectal cancer PDX model; conditions: 6 mg/kg i.v. once
Protocol: (§1) The lengths of the long axis and the short axis of the tumor were measured and the volume of the tumor was calculated as 0.5×(long axis)×(short axis)2. […] Ti is the average tumor volume in the treatment group on day i. T0 is the average tumor volume in the treatment group on day zero. Vi is the average tumor volume in the control group on day i. V0 is the average tumor volume in the control group on day zero. T-test was performed for statistical analysis. […] P<0.05 is a threshold to indicate significant difference. The body weights of the mice were also measured throughout the entire administration period.
(§2) The ADCs were tested for their effects on tumor growth in vivo in human lung, colorectal or gastric tumor PDX models. Immunofluorescence staining of patient-derived tumor fragments was performed and the images were analyzed via HALO 3.2 version.
(§3) Specifically, B-NDG mice were engrafted in the right flank with patient-derived lung, colorectal or gastric tumor fragments (2 mm×2 mm×2 mm). When the tumors in the mice reached a volume of about 200-300 mm3, the mice were randomly placed into different groups based on the volume of the tumor.
(§4) The mice were injected with PBS or ADCs by intravenous (i.v.) administration at a dosage of 6 mg/kg (1 administration in total).

[2] = system: human pancreatic tumor PDX; experiment: anti-tumor activity in human pancreatic PDX model; conditions: for Tumor volume Day 0: day of grouping (baseline)
Protocol: The ADCs were tested for their effects on tumor growth in vivo in human pancreatic tumor PDX models. Immunofluorescence staining of patient-derived tumor fragments was performed and the images were analyzed via HALO 3.2 version.
Specifically, B-NDG mice (Biocytogen Pharmaceuticals (Beijing) Co., Ltd., Cat #: B-CM-002) were engrafted in the right flank with patient-derived pancreatic tumor fragments (2 mm×2 mm×2 mm). When the tumors in the mice reached a volume of about 200-300 mm3, the mice were randomly placed into different groups based on the volume of the tumor. The mice were then injected with PBS or ADCs by intravenous (i.v.) administration at a dosage of 3 mg/kg or 6 mg/kg (1 administration in total).
as §1

[3] = system: human lung cancer PDX; experiment: anti-tumor activity in human lung cancer PDX model; conditions: for Tumor volume Day 0: day of grouping (baseline)
Protocol: as §1, §2, §3, §4

[4] = system: human breast tumor PDX; experiment: anti-tumor activity in human breast PDX model (Example 6); conditions: 6 mg/kg i.v. every two weeks x2
Protocol: as §1
The ADCs were tested for their effects on tumor growth in vivo in human breast tumor PDX models. Immunofluorescence staining of patient-derived tumor fragments was performed and the images were analyzed via HALO 3.2 version.
Specifically, B-NDG mice were engrafted in the right flank with patient-derived pancreatic tumor fragments (2 mm×2 mm×2 mm). When the tumors in the mice reached a volume of about 200-300 mm3, the mice were randomly placed into different groups based on the volume of the tumor. The mice were then injected with PBS or ADCs by intravenous (i.v.) administration at a dosage of 6 mg/kg. The frequency of administration was once every two weeks (2 administrations in total).

T-GGFG-Dxd: Trastuzumab analog coupled with GGFG-Dxd (Deruxtecan), mean n 8.14 [reference compound]
TGI (Day 28) [1]: 55.8% | Tumor volume Day 14 [1]: 214 ± 45 mm^3 | Tumor volume Day 28 [1]: 506 ± 115 mm^3 | Tumor volume Day 0 ([1]; day of grouping (baseline)): 146 ± 5 mm^3 | TGI (Day 21) ([2]; 3 mg/kg i.v. once): 30.5% | Tumor volume Day 14 ([2]; 3 mg/kg i.v. once): 737 ± 81 mm^3 | Tumor volume Day 21 ([2]; 3 mg/kg i.v. once): 1305 ± 130 mm^3 | Tumor volume Day 0 ([2]; 3 mg/kg i.v. once): 242 ± 17 mm^3 | TGI (Day 21) ([2]; 6 mg/kg i.v. once): 22.6% | Tumor volume Day 14 ([2]; 6 mg/kg i.v. once): 731 ± 89 mm^3 | Tumor volume Day 21 ([2]; 6 mg/kg i.v. once): 1426 ± 134 mm^3 | Tumor volume Day 0 ([2]; 6 mg/kg i.v. once): 242 ± 13 mm^3 | TGI (Day 23) ([3]; 3 mg/kg i.v. once): 16.5% | Tumor volume Day 13 ([3]; 3 mg/kg i.v. once): 779 ± 172 mm^3 | Tumor volume Day 23 ([3]; 3 mg/kg i.v. once): 1558 ± 323 mm^3 | Tumor volume Day 0 ([3]; 3 mg/kg i.v. once): 184 ± 23 mm^3 | TGI (Day 23) ([3]; 6 mg/kg i.v. once): 28.2% | Tumor volume Day 13 ([3]; 6 mg/kg i.v. once): 503 ± 47 mm^3 | Tumor volume Day 23 ([3]; 6 mg/kg i.v. once): 1364 ± 109 mm^3 | Tumor volume Day 0 ([3]; 6 mg/kg i.v. once): 184 ± 16 mm^3 | TGI (Day 28) [4]: 46.6% | Tumor volume Day 18 [4]: 638 ± 64 mm^3 | Tumor volume Day 28 [4]: 1251 ± 149 mm^3 | Tumor volume Day 0 ([4]; day of grouping (baseline)): 214 ± 11 mm^3

T-VC-MMAE: Trastuzumab analog coupled with VC-MMAE, mean n 4.0 [reference compound]
TGI (Day 21) ([2]; 3 mg/kg i.v. once): 44.9% | TGI (Day 21) ([2]; 6 mg/kg i.v. once): 60.7%
